{
  "source": "paper PMC6820738",
  "about": "(2019)",
  "molecular_target": "F-actin polymerised from purified bovine muscle actin (bovine, UniProt P68138 1-377)",
  "data": [
    {"binder": "Y4/31E/K255E ACTN4, full length, purified from E. coli (natural protein) MVDEHAANQSYQYGPSSAGNGAGGGGSMGDEMAQEDDWDRDLLLDPAWEKQQRKTFTAWCNSHLRKAGTQIENIDEDFRDGLKLMLLLEVISGERLPKPERGKMRVHKINNVNKALDFIASKGVKLVSIGAEEIVDGNAKMTLGMIWTIILRFAIQDISVEETSAKEGLLLWCQRKTAPYKNVNVQNFHISWKDGLAFNALIHRHRPELIEYDKLRKDDPVTNLNNAFEVAEKYLDIPKMLDAEDIVNTARPDEEAIMTYVSSFYHAFSGAQKAETAANRICKVLAVNQENEHLMEDYEKLASDLLEWIRRTIPWLEDRVPQKTIQEMQQKLEDFRDYRRVHKPPKVQEKCQLEINFNTLQTKLRLSNRPAFMPSEGKMVSDINNGWQHLEQAEKGYEEWLLNEIRRLERLDHLAEKFRQKASIHEAWTDGKEAMLKHRDYETATLSDIKALIRKHEAFESDLAAHQDRVEQIAAIAQELNELDYYDSHNVNTRCQKICDQWDALGSLTHSRREALEKTEKQLEAIDQLHLEYAKRAAPFNNWMESAMEDLQDMFIVHTIEEIEGLISAHDQFKSTLPDADREREAILAIHKEAQRIAESNHIKLSGSNPYTTVTPQIINSKWEKVQQLVPKRDHALLEEQSKQQSNEHLRRQFASQANVVGPWIQTKMEEIGRISIEMNGTLEDQLSHLKQYERSIVDYKPNLDLLEQQHQLIQEALIFDNKHTNYTMEHIRVGWEQLLTTIARTINEVENQILTRDAKGISQEQMQEFRASFNHFDKDHGGALGPEEFKACLISLGYDVENDRQGEAEFNRIMSLVDPNHSGLVTFQAFIDFMSRETTDTDTADQVIASFKVLAGDKNFITAEELRRELPPDQAEYCIARMAPYQGPDAVPGALDYKSFSTALYGESDL", "values": [
      {"measurement": "Kd", "value": 530, "unit": "nM"}
    ]}
  ]
}
